Assay results reported in patent publication US9040694B1, “Compounds and methods useful for directing stem cell differentiation” (priority 2009, dated 2015).

Target: AMPK
Test: In vitro kinase assay (Reaction Biology Corp)
Format: biochemical
Conditions: 10 μM ATP; purified kinase

c1cc(-c2cnn3cc(-c4ccc(OCCN5CCCCC5)cc4)cnc23)ccn1 [Dorsomorphin, 6-[4-(2-Piperidin-1-yl-ethoxy)phenyl]-3-pyridin-4-yl-pyrazolo[1,5-a]pyrimidine]
IC50: 318 nM
